Each structure is given as a SMILES string. The entries are a selection whose mix differs from that of the whole data set. Some results for these compounds are left out of this collection, so the calls shown say nothing about other tests. The source made the active and inactive calls. No stated cut-off is given here; in the data, active means activation above about 65%; inactive means the rest.

Sequences of proteins named here, by UniProt entry; tags and fusion partners are left off.
UniProt P04062, whole entry L483P: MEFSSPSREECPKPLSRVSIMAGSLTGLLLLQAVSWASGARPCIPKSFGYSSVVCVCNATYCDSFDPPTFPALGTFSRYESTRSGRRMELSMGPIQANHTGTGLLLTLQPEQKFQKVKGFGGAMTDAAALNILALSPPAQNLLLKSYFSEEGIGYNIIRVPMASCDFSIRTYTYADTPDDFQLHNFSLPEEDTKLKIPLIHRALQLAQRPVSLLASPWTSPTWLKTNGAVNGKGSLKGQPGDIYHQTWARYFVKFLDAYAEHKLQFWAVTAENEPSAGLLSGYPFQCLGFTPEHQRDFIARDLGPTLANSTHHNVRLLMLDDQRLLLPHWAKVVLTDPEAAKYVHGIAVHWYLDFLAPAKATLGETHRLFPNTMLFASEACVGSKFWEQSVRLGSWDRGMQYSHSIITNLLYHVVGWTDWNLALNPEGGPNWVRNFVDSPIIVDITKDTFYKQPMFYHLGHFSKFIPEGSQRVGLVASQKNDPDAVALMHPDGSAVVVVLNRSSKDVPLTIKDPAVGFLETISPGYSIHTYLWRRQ

This assay addresses Lysosomal acid glucosylceramidase (Homo sapiens) (UniProt P04062). Kind of assay: raising glucocerebrosidase activity, Gaucher cells – primary screen (AID 784).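 Further: 0% = vehicle wells and 100% = positive control wells.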 As to conditions: L444P Gaucher fibroblasts, 4-MU-glucoside fluorescence, 3 days; at 10 µM; hits give high values.
Regarding `O=C(OC1CN2CCC1CC2)C(CO)(c1ccccc1)c1ccccc1` (stereo unspecified), the activation was inactive: -5.03%.

(Values after PubChem BioAssay AID784 (The Scripps Research Institute Molecular Screening Center, 2007).)
